Nrf2 inh – inhibitors of Nrf2 signaling | A549 ARE-Fluc reporter, luciferase luminescence, 18-24 h | Potency, µM (titrated, usually from 46 µM), without a hit: at the top dose activity change, negative = inhibition, actives largely listed as inhibitors | 2.1% of 360,000 active | AID 504444; also: potency is read from the fitted curve at half-maximal effect; % is scaled to controls: 0 for no effect and ±100 for the full control effect; nearly all actives have a fitted effect of over 60% in size
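Nrf2 activity is the BugLite luminescence, read 15 min after reagent at room temperature, following CellTiter-Fluor cytotoxicity readout (30 min, 37C). Compound titrations were applied for 18-24 h to 5000 A549 ARE_Fluc cells/well in 5% FBS OPTI-MEM.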
TSG101-PTAP inh – blocks PTAP/TSG101 interaction to inhibit HIV-1 budding | Q99816 | Fluorescence polarization, FITC-PTAP peptide / Tsg101 binding | Potency, µM (titrated, usually from 115 µM), for inactives: at the highest dose activity change, negative = inhibition, hits mostly inhibitors | 340,000 tested, under 10 active | AID 493005; active = well fitted inhibition curve with a large enough effect in the main read-out, with a control signal flat, not every such curve was filed as active; inconclusive = small, poorly fitted or top-dose-only effect, or effect the other way, or a change in a side signal; inactive = no such curve, though single readings can be large or run the other way; also: potency is read from the fitted curve at half-maximal effect; % of control where 0% means no effect
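Steps: Tsg101 binding domain dispensed (10 uM final), compounds pinned in DMSO, FITC-labeled PTAP-motif peptide added (50 nM final); after 20 min binding at room temperature, polarization measured.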
Glioma ERSR ind – inducers of ER stress response in human glioma cells; U87-MG GRP78 promoter luciferase reporter, 16 h; Potency, µM, for the others: at the highest dose activation, most hits filed as activators; 0.02% of 420,000 active; AID 602332; also: potency is read from the fitted curve at half-maximal effect; series mostly up to about 76 µM; % of control where 0% means no effect; nearly all actives have a fitted effect of over 35% in size
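ERSR induction read as luciferase luminescence (Bright-Glo, 10 min at room temperature) in stably transfected human U87-MG glioma cells exposed to compounds for 16 h, using GRP78 as sensor.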
Nrf2 ARE act – activators of Nrf2 (ARE) signaling; 0.31% of 410,000 active; AREc32 ARE-luciferase reporter (MCF7-derived line), luminescence, 24 h; Potency, µM (highest dose often 46.1 µM), inactives show top-dose activation, hits mostly activators; also: potency is read from the fitted curve at half-maximal effect; % of control where 0% means no effect; nearly all actives have a fitted effect of over 65% in size
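Reporter line AREc32 (ARE-Fluc), seeded overnight in OPTI-MEM with 5% FBS; compound pin-transferred, 24 hr at 37 deg C, 5% CO2; luminescent read-out.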
miR-21 reporter – miR-21 reporter, rising signal | HeLa miR-21 FLuc reporter, luciferase, 48 h | Potency, µM (doses to about 38.3 µM), inactives show at the top dose reporter change, positive = more light | 340,000 tested, under 10 active | AID 2288; active = well fitted rising curve with a large enough effect; inconclusive = small, poorly fitted or top-dose-only effect; inactive = no such curve, though single readings can be large or run the other way;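 note: % of control where 0% means no effect; miR-21 action dims this reporter so a rising signal means less miR-21 action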
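Using DMEM plus 10% FBS, HeLa miR-21-FLuc cells are incubated with test compounds (final up to about 40uM) for 48 hours; firefly luciferase signal is then imaged following reagent-mediated lysis.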
A549 viability – kills or reduces viability of A549 cells in Nrf2 counter-screen | A549 ARE-Fluc cells, CellTiter-Fluor viability, 18-24 h | Potency, µM (titrated, usually from 46 µM), for the others: at the top dose activity change, negative = cytotoxicity, actives largely listed as inhibitors | 0.16% of 390,000 active | AID 504648; also: potency is read from the fitted curve at half-maximal effect; % is scaled to controls: 0 for no effect and ±100 for the full control effect
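A549 ARE_Fluc cells in 5% FBS OPTI-MEM were exposed to compounds in concentration-response for 18-24 h at 37 deg C. Viability was read by CellTiter-Fluor fluorescence (Ex 405/Em 525) after 30 min, before the luciferase read.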
Starred values were filed as active, the others as inactive. Hits are enriched below; roughly 2.1% of the tested compounds scored in any of these assays. Unless noted, calls follow the shape of the dose curve; as a rule, active = well fitted curve in the direction sought with a large enough effect; inconclusive = small, poorly fitted or top-dose-only effect, or another doubt; inactive = no such curve, though single readings can be large; an effect the other way counts as inactive or inconclusive.

What do the screens show for `C/C(=N\NC(=O)c1nnn(-c2nonc2N)c1-c1ccccc1)c1ccccc1O`?
Nrf2 inh: 4.61µM*; TSG101-PTAP inh: -2.6%; Glioma ERSR ind: -7.5%; Nrf2 ARE act: -1.4%; miR-21 reporter: inconclusive; A549 viability: -7.5%

What do the screens show for `COc1ccc(C(=O)C[n+]2ccccc2Cl)cc1`?
Glioma ERSR ind: 1.5%

What do the screens show for `O=C1c2ccccc2C(=O)N1c1cc(=O)c2ccccc2[nH]1`?
Nrf2 inh: 2.5%; A549 viability: 3.7%

What do the screens show for `CCN(CC)c1ccc(Nc2cc3n(c(=O)n2)CCc2cc(OC)c(OC)cc2-3)cc1`?
Nrf2 inh: 16.4µM*; TSG101-PTAP inh: -12.3%; Glioma ERSR ind: -3.0%; Nrf2 ARE act: 3.8%; miR-21 reporter: -8.0%; A549 viability: -3.9%

Results for Cc1ccc(CN2CCc3nnc(C(NS(C)(=O)=O)C(C)C)n3CC2)cc1C (configuration not stated) ?
Glioma ERSR ind: -3.4%

What do the screens show for `COc1ccc(-c2cc(C(=O)N3CCc4c(cnc(C)c4CNC(=O)c4ccsc4)C3)[nH]n2)cc1`?
Glioma ERSR ind: -4.9%

Results for CC1=C(CO)C(=O)OC([C@@H](C)C2CC[C@H]3C4C[C@H]5O[C@]56[C@@H](O)C=CC(=O)[C@]6(C)C4CC[C@]23C)C1 (some centres not stated) ?
Nrf2 inh: 13µM*; TSG101-PTAP inh: 1.2%; Glioma ERSR ind: -10.7%; Nrf2 ARE act: -2.4%; miR-21 reporter: inconclusive; A549 viability: -17.8%

Results for COc1cccc(C(=O)NCC2Cc3c(F)ccc(-c4ncccn4)c3O2)c1OC (configuration not stated) ?
Glioma ERSR ind: -1.6%

How did COc1ccccc1NS(=O)(=O)c1cccc(NC(=O)Nc2ccc(Cl)cc2)c1 do in these assays?
Nrf2 inh: inconclusive; TSG101-PTAP inh: -2.2%; Glioma ERSR ind: 4.2%; Nrf2 ARE act: 5.1%; miR-21 reporter: inconclusive; A549 viability: inconclusive

What do the screens show for `CCn1ccc(C(=O)Nc2ccc(S(=O)(=O)Nc3ccccc3OC)cc2)n1`?
Nrf2 inh: 14.6µM*; TSG101-PTAP inh: -2.0%; Glioma ERSR ind: 4.7%; Nrf2 ARE act: 2.3%; miR-21 reporter: 14.1%; A549 viability: -11.8%

In the list so far, 2 contain a Cl atom:
What do the screens show for `COc1ccc(C(=O)C[n+]2ccccc2Cl)cc1`?
Glioma ERSR ind: 1.5%

How did COc1ccccc1NS(=O)(=O)c1cccc(NC(=O)Nc2ccc(Cl)cc2)c1 do in these assays?
Nrf2 inh: inconclusive; TSG101-PTAP inh: -2.2%; Glioma ERSR ind: 4.2%; Nrf2 ARE act: 5.1%; miR-21 reporter: inconclusive; A549 viability: inconclusive

Additional structures follow:
What do the screens show for `COc1ccccc1NS(=O)(=O)c1cccc(NC(=O)Nc2ccccc2)c1`?
Nrf2 inh: 2.59µM*; TSG101-PTAP inh: 0.3%; Glioma ERSR ind: -5.4%; Nrf2 ARE act: 0.5%; miR-21 reporter: inconclusive; A549 viability: -12.0%

How did CC(c1ccon1)N(C)C(=O)c1cnn(-c2ncc3c(n2)-c2ccccc2CC3)c1C1CC1 (configuration not stated) do in these assays?
Glioma ERSR ind: 11.3%

How did CCN(C(=O)Cn1nnc2sc(-c3ccccc3)cc2c1=O)c1cccc(C)c1 do in these assays?
Nrf2 inh: 26.1%; Nrf2 ARE act: 4.47µM*; miR-21 reporter: 0.4%; A549 viability: 10.8%

How did COc1ccccc1-c1ccnc(-n2ncc(C(=O)N[C@H]3CCCCNC3=O)c2C2CC2)n1 do in these assays?
Glioma ERSR ind: -3.9%

Results for Cc1cc(C)n(-c2ccc(C(=O)NCC3Cc4cc(-c5cnccn5)ccc4O3)cc2)n1 (configuration not stated) ?
Glioma ERSR ind: -2.5%

What do the screens show for `COc1ccc2nc(Sc3c([N+](=O)[O-])nc(C)n3Cc3ccccc3)[nH]c2c1`?
Nrf2 inh: 13µM*; TSG101-PTAP inh: -17.8%; Glioma ERSR ind: -15.8%; Nrf2 ARE act: inconclusive; miR-21 reporter: 20.4%; A549 viability: inconclusive

Results for Cc1nc([N+](=O)[O-])c(Sc2nc3ccccc3[nH]2)n1Cc1ccccc1 ?
Nrf2 inh: inconclusive; TSG101-PTAP inh: 0.8%; Glioma ERSR ind: -10.1%; Nrf2 ARE act: inconclusive; miR-21 reporter: inconclusive; A549 viability: -25.6%
